Protein sequences, listed by entry. Tags and fused reporters are not part of them.
UniProt P21728, whole entry: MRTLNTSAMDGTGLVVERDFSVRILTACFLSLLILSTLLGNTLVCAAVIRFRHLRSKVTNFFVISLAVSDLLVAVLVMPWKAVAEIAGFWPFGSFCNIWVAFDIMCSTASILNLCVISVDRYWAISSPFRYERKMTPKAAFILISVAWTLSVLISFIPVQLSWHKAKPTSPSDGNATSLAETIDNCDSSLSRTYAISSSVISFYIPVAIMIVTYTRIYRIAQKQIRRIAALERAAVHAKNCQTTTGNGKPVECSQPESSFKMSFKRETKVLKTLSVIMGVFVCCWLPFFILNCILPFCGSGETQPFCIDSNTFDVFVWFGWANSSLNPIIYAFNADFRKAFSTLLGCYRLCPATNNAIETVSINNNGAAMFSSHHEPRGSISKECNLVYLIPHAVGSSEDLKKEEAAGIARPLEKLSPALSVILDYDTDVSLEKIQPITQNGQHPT

This is a selection; strong and weak results do not stand in their true shares. Calls of active or inactive are those of the source.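 How the source made its calls: active means luminescence count or its row- and column-corrected plate score outside the 99.7% band of the plate's sample wells, on either side; inactive means the rest.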
The molecules below were run against D(1A) dopamine receptor (Homo sapiens) (UniProt P21728) (assay: D1 CRE-luciferase signal change, two-sided – cell-based, HEK293 D1, dopamine EC30, D1 allosteric modulator project, primary screen (AID 641)). Conditions: dopamine EC30 potentiation, at 10 µM, actives deviate in either direction.
`CP(=O)(Nc1ccccc1F)Oc1ccccc1` (stereo unspecified) was tested, and the B-score was inactive: -0.137. For `CP(=O)(Nc1ccc2c(c1)OCCO2)Oc1ccccc1` (stereo unspecified), the B-score was inactive: -1.67. For `Cc1ccccc1NP(C)(=O)Nc1ccccc1C`, the B-score was inactive: -0.932. `CCOP(C)(=S)SCC(=O)NC(C)(CC)C(=O)O` (stereo unspecified) was tested, and the B-score was inactive: 0.0593. `CN(C)CCOC(=O)C(O)(c1ccccc1)C1CCCCC1` (stereo unspecified) was tested, and the B-score was inactive: -0.236. With `CP(=O)(Oc1ccccc1)N1CCOC1=O` (stereo unspecified) the B-score was inactive: -0.412. With `CP(=O)(Nc1ccccn1)Oc1ccccc1` (stereo unspecified) the B-score was inactive: -0.0686. In the case of `Cc1nc2ccc3ccccc3c2o1.O=[N+]([O-])c1cc([N+](=O)[O-])c(O)c([N+](=O)[O-])c1`, the B-score is reported as inactive: -0.325. In the case of `COc1ccccc1OP(C)(=O)Nc1ccc(C)c(C)c1` (stereo unspecified), the B-score is reported as inactive: -0.25. In the case of `COc1ccccc1OP(C)(=O)Nc1ccc(C)cc1` (stereo unspecified), the B-score is reported as active: -3.21. `Cc1ccc(NP(C)(=O)Oc2ccccc2)c(C)c1` (stereo unspecified) was tested, and the B-score was inactive: -1.59. For `CCOP(C)(=S)SCC(=O)NC(C)C(=O)O` (stereo unspecified), the B-score was inactive: 0.881. In the case of `CP(=O)(NC(=O)Nc1ccccc1)Oc1ccccc1` (stereo unspecified), the B-score is reported as inactive: -0.451. In the case of `CP(=S)(Nn1cnnc1)Oc1ccccc1` (stereo unspecified), the B-score is reported as inactive: -0.0113. `Cc1nc2ccc3ccccc3c2s1.O=[N+]([O-])c1cc([N+](=O)[O-])c(O)c([N+](=O)[O-])c1` was tested, and the B-score was active: 5.03. `Cc1ccc(C)c(NP(C)(=O)Oc2ccccc2)c1` (stereo unspecified) was tested, and the B-score was inactive: 0.00409.
